This passage reports Ki results from US9108951B2, “Substituted 5,6,7,8-tetrahydro-1,6-naphthyridines as factor XIa inhibitors” (BRISTOL-MYERS SQUIBB COMPANY, priority 2011, dated 2015).

Protein sequences, listed by entry. Tags and fused reporters are not part of them. Residues count along the entry.
UniProt P03951, 388-625 limits assumed: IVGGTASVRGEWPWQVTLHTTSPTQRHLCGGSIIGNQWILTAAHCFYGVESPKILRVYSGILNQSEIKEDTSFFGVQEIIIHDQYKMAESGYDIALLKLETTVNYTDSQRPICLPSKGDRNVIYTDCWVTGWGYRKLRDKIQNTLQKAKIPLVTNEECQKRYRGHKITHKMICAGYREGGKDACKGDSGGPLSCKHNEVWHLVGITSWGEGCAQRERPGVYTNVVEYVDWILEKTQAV
UniProt P03951, 19-387 partner limits assumed: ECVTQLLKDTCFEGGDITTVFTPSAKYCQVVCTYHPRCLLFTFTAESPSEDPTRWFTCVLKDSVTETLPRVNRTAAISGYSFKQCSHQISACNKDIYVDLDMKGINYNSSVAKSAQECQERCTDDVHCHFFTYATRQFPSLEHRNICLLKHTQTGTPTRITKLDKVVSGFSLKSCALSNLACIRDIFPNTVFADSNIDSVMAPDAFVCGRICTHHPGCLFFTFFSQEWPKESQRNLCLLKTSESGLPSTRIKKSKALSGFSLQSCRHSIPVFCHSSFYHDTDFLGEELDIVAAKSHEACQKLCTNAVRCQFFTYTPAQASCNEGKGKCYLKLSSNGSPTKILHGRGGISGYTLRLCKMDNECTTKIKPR

For the assay, the target named is purified human Factor XIa (Homo sapiens (Human), UniProt P03951). Briefly: Factor XIa assay (chromogenic substrate hydrolysis, Ki). As to conditions: read-out: Factor XIa Ki, synthetic substrate S-2366, 50 mM HEPES pH 7.4.

The structures appear in SMILES notation.

For the compound `COC(=O)c1ccc(NC(=O)C2c3cc(C)ccc3CCN2C(=O)/C=C/c2cc(Cl)ccc2-n2cnnn2)cc1` (racemic), the inhibition constant Ki stood at 5.12 µM.

In general, Ki refers to a measure of affinity in units of concentration, obtained from inhibition or displacement.
